Assay results taken from publication PMC8920097, “Prediction of hERG inhibition of drug discovery compounds using biomimetic HPLC measurements” (ADMET & DMPK, 2021).

Experiment: Phospholipid binding at pH 7.4 on IAM PC.DD2 HPLC column
Conditions: pH 7.4, derived from CHI IAM by equation 1

CN(CCOc1ccc(NS(C)(=O)=O)cc1)CCc1ccc(NS(C)(=O)=O)cc1 [Dofetilide]
log k IAM: 1.94
